## Apparent affinities of Ab-14 variants for a coronavirus HR2 peptide

Source: Li et al. 2023 (doi:10.1038/s41467-023-39022-2), MIT Lincoln Laboratory and A-Alpha Bio; data file from the FLAb repository.

The target is the same throughout: PDVDLGDISGINAS, from the HR2 region of SARS-CoV-2 spike.

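The parent was found by panning a naive human phage display library on the peptide. Designed CDR sequences, proposed from the first random library and measured here. Their group label is 14H_GPLM_HC (GPLM: also part of the Gaussian process libraries; HC: hill climbing; a sequence that several methods proposed may carry one label only). The assay is AlphaSeq: two haploid yeast populations carry antibody and antigen on their surface. The frequency of each diploid, read from paired DNA barcodes, reflects how well the two displayed proteins bind. Scores were corrected for input abundance and mapped to Kd with protein pairs of known affinity run in the same pool. Mating was done six times.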

Ab-14 is the parent antibody, in scFv form: VH, then a (GGGGS)3 linker, then VL. The light chain is unchanged in all variants.
VH: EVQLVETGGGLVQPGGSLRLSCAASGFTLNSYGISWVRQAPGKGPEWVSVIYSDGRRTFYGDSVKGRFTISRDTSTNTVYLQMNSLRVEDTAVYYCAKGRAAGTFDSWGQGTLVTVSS
VL: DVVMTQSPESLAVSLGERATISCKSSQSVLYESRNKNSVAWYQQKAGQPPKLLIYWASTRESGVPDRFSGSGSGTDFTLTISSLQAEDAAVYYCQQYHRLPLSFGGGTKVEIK

Positions count from residue 1 of the parent VH; S31E puts E in place of S.
The read-out is the apparent dissociation constant on a log10 scale (nM): the lower, the stronger.
A mean of the replicates is given; it leaves out those without a signal.
"ND" marks a missing value. The strain was present, yet no cells mated with the target were sequenced in that replicate, which points to weak or no binding.

changes,"log10 Kd, replicates","log10 Kd (nM), mean",empty controls
S31E+R56I+D106R,0.83 1.60 1.10 0.36 0.97 0.56,0.90,1 of 18 (2.52)
T28S+S31D+D106S,0.87 0.84 0.48 0.65 0.74 1.14,0.79,0 of 18
S31D+A101L+D106W,ND ND ND ND ND ND,ND,0 of 18
T28S+S31E+G61S+G103V+S107Q,ND ND ND ND ND ND,ND,0 of 18
N30D+D106V+S107D,ND ND ND ND ND ND,ND,0 of 18
S31E+G103F+S107Q,ND ND ND ND ND ND,ND,0 of 18
S31E+G61Y+A101Q,0.77 ND ND ND ND ND,0.77,0 of 18
T28E+S53A+D106K,1.75 2.91 ND ND ND ND,2.33,0 of 18
S31E+A101F+S107T,0.13 0.56 0.35 0.24 0.18 0.61,0.35,0 of 18
T28D+T104H+D106M,ND ND ND ND ND ND,ND,0 of 18
S31E+R56S+G61T+A101F,1.88 1.32 1.07 1.11 1.20 1.73,1.38,1 of 18 (2.48)
G61S+R100M+A102G,3.61 2.15 1.71 3.13 2.01 1.61,2.37,0 of 18
S31E+A101L+S107G,ND ND ND ND ND ND,ND,0 of 18
S31E+T58C+G61T+A101F,ND 2.77 1.28 1.21 2.45 1.70,1.88,2 of 18 (2.21)
G61S+A102G+T104I,ND ND ND ND ND ND,ND,0 of 18
S31D+G61A+D106S,ND ND ND ND ND ND,ND,0 of 18
S31E+A101H+D106I,ND ND ND ND ND ND,ND,0 of 18
T28D+G61S+T104F,ND ND ND ND ND ND,ND,0 of 18
R56H+G61D+A101L,ND 1.12 1.86 ND 1.00 2.45,1.61,0 of 18
T28S+S31Q+G61K,1.25 0.71 0.18 0.28 0.48 1.01,0.65,0 of 18
T28G+S31Q+G61A,0.36 0.28 -0.05 0.23 0.06 0.38,0.21,0 of 18
S31E+R56K+D106I+S107F,ND ND 1.95 ND ND ND,1.95,1 of 18 (2.13)
S31E+G61T+A101I,-0.55 ND -0.44 0.49 -1.37 -0.88,-0.55,0 of 18
S53A+F105N,ND ND ND ND ND ND,ND,0 of 18
G61D+R100W+A101L,ND ND ND ND ND ND,ND,0 of 18
S31E+R56M+G61S+A101T,0.25 0.17 0.36 -0.01 -0.13 0.26,0.15,0 of 18
T28S+S31E+G103L,ND ND ND ND ND ND,ND,0 of 18
N30D+S107T,ND ND ND ND ND ND,ND,0 of 18
S31E+G61V+A101F,1.79 0.85 1.20 0.99 1.08 1.31,1.20,0 of 18
S31E+G61S+D106M,ND ND ND ND ND ND,ND,0 of 18
S31D+A101M+D106F,1.99 ND 0.82 2.02 1.20 1.47,1.50,0 of 18
T28S+G61D+R100Q+A101L,1.45 2.00 0.63 1.54 2.46 0.75,1.47,0 of 18
S31Q+R56Q+G61H,0.97 0.65 1.12 0.90 0.85 1.29,0.96,1 of 18 (1.95)
S31E+G61M+A101F,1.11 1.15 0.70 1.16 1.21 1.14,1.08,0 of 18
S31E+S63A+G103V+S107Q,ND ND ND ND ND ND,ND,0 of 18
S31E+G61S+A101L,-0.22 -0.21 -0.06 -0.32 -0.19 0.09,-0.15,0 of 18
S31E+G61A+A101L,-0.26 -0.41 -0.15 -0.08 -0.15 -0.06,-0.19,1 of 18 (2.03)
S31E+A101H+S107G,ND ND 0.60 1.19 1.77 ND,1.19,0 of 18
S31D+F59V,0.29 0.10 0.49 -0.05 0.00 0.03,0.15,0 of 18
G61M+R100Q+A101L,ND ND 0.59 2.20 0.29 0.76,0.96,1 of 18 (0.33)
S31D+F59Q+G61Q,ND 2.65 ND 0.97 0.70 2.44,1.69,1 of 18 (1.32)
G26N+G61D+R100Q+A101L,ND ND ND ND ND ND,ND,0 of 18
G61A+S107K,1.15 2.39 0.98 1.24 1.07 1.04,1.31,1 of 18 (2.17)

The last 4 entries again:

changes,"log10 Kd, replicates","log10 Kd (nM), mean",empty controls
G61M+R100Q+A101L,ND ND 0.59 2.20 0.29 0.76,0.96,1 of 18 (0.33)
S31D+F59Q+G61Q,ND 2.65 ND 0.97 0.70 2.44,1.69,1 of 18 (1.32)
G26N+G61D+R100Q+A101L,ND ND ND ND ND ND,ND,0 of 18
G61A+S107K,1.15 2.39 0.98 1.24 1.07 1.04,1.31,1 of 18 (2.17)

Nonspecific signal, from three strains lacking the peptide, appeared in 1% of pairings of all heavy chain designs, centred on 2.08 (5% of these signals below 0.84); values are not corrected for it. For each scFv, signals with the empty controls are counted beside the result, with their mean in brackets.
The authors' rule: three or more of the six replicates give a measured affinity, fewer mean a poor binder.
The range of this assay differs from that of the first round, and the authors advise against merging the two.
Of ten entries with the parent sequence, four were seen in most replicates (averages 0.34 to 2.37), three in one and three in none, so single entries are noisy.